# Apparent affinities of Ab-14 variants for a coronavirus HR2 peptide

Antigen: PDVDLGDISGINAS, a 14-residue peptide of the SARS-CoV-2 spike HR2 region.

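The starting antibody came from a phage panning campaign against this peptide. These sequences belong to a second round, designed from the earlier measurements on random variants of the parent. Group labels follow the data file (Ctrl: baseline library sampled from a position-specific scoring matrix, with some repeated check sequences; En: ensemble of fine-tuned language models; GP: Gaussian process model; HC: hill climbing; Gen: genetic algorithm; Gibbs: Gibbs sampling; a sequence that several methods proposed may carry one label only). AlphaSeq pools MATa yeast showing the antibodies with MATalpha yeast showing the peptide. Mating (16 h, 30 °C) was followed by selection of diploids and sequencing of their barcodes. Read counts were normalised to the haploid input and turned into Kd by a linear fit to BCL2-family pairs of known affinity, for each replicate. Each pool was mated in six replicate cultures.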

Ab-14 is the parent antibody, in scFv form: VH, then a (GGGGS)3 linker, then VL. The heavy chain is unchanged in all variants.
VH: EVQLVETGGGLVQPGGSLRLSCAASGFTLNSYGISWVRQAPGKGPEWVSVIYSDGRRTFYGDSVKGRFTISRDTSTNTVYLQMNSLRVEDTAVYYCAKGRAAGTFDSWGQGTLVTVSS
VL: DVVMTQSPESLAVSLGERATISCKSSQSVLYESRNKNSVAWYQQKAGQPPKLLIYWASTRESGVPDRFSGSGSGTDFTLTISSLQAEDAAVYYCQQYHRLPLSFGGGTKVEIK

Each variant's VL is given in full.
Each Kd is an estimate from the mating assay, the geometric mean of the replicates in which the pair was seen; lower is stronger.
Where no diploid with the target was found in any replicate, the entry reads "nd": below detection, most likely a poor binder, though not proof of it.

{"VL": "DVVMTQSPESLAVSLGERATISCFMSQSVLMEGRNDNSVAWYQQKAGQPPKLLIYDASTREDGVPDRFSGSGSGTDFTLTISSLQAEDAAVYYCQQYHRLPLSFGGGTKVEIK", "group": "GP_Gibbs", "Kd (apparent)": "890 pM", "seen in": "6 of 6"}
{"VL": "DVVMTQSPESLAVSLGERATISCKSSQSVLYEEANKNSVAWYQQKAGQPPKLLIYWASTRESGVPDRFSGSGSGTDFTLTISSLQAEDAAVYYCQQYHRLPLSFGGGTKVEIK", "group": "Ctrl", "Kd (apparent)": "nd", "seen in": "0 of 6"}
{"VL": "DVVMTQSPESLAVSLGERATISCKFSQSDLYESRNKNSVAWYQQKAGQPPKLLIYGASTRESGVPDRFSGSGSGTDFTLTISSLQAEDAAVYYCQQYHRLPLSFGGGTKVEIK", "group": "GP_Gen", "Kd (apparent)": "260 pM", "seen in": "6 of 6"}
{"VL": "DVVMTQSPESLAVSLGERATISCKQSQSVLYESVNKSSVAWYQQKAGQPPKLLIYDASTRESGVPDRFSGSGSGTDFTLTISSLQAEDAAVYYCQQYHRLPLSFGGGTKVEIK", "group": "GP_HC", "Kd (apparent)": "5.7 nM", "seen in": "6 of 6"}
{"VL": "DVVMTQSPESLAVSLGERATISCNLSGHPYNNSQYKNSIAWYQQKAGQPPKLLIYEDNNIRLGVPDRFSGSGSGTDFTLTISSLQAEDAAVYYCQQYHRLPFTFGGGTKVEIK", "group": "En_Gibbs", "Kd (apparent)": "8.9 nM", "seen in": "2 of 6"}
{"VL": "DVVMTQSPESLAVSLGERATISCKLSQSYLYESMNKNSVAWYQQKAGQPPKLLIYEASTRESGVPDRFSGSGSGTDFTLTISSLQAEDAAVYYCQQYHRLPLSFGGGTKVEIK", "group": "GP_HC", "Kd (apparent)": "730 pM", "seen in": "6 of 6"}
{"VL": "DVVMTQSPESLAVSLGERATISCKVSQSYLYESRNKNSVAWYQQKAGQPPKLLIYNASTREVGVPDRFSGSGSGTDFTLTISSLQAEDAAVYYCQQYHRLPLSFGGGTKVEIK", "group": "GP_Gen", "Kd (apparent)": "2.2 nM", "seen in": "6 of 6"}
{"VL": "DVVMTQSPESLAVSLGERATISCALFQKGFELHGDRQSIAWYQQKAGQPPKLLIYHSDTRAAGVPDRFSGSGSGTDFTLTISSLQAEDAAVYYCQQYSRLPLAFGGGTKVEIK", "group": "En_Gibbs", "Kd (apparent)": "1.1 nM", "seen in": "6 of 6"}
{"VL": "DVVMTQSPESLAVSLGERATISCKVSQSMLGESRNKNSVAWYQQKAGQPPKLLIYSASTRENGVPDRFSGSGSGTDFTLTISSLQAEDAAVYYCQQYHRLPLSFGGGTKVEIK", "group": "GP_Gibbs", "Kd (apparent)": "810 pM", "seen in": "6 of 6"}
{"VL": "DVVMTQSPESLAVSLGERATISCKLSQLGLYGQRNKMSVAWYQQKAGQPPKLLIYDASQREDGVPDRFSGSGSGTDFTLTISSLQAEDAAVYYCQQYHRLPLSFGGGTKVEIK", "group": "GP_Gibbs", "Kd (apparent)": "430 pM", "seen in": "6 of 6"}
{"VL": "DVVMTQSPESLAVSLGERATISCKLSQSFLYESRNKNSVAWYQQKAGQPPKLLIYEASTRESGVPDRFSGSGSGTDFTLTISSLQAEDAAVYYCQAYHRLPLSFGGGTKVEIK", "group": "GP_HC", "Kd (apparent)": "5.0 nM", "seen in": "6 of 6"}
{"VL": "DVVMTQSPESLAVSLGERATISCKLSQSNLYESRNKNNVAWYQQKAGQPPKLLIYNASTRMSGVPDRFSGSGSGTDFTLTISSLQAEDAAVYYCQQYHRLPLSFGGGTKVEIK", "group": "GP_Gen", "Kd (apparent)": "300 pM", "seen in": "6 of 6"}
{"VL": "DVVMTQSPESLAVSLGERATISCHIGDLIMVASRNKNSVAWYQQKAGQPPKLLIYDESTRPDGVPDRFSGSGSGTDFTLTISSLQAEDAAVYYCQQYHRLPLSFGGGTKVEIK", "group": "En_HC", "Kd (apparent)": "1.5 nM", "seen in": "6 of 6"}
{"VL": "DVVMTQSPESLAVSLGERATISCKSSQSVLYESDNKNSVAWYQQKAGQPPKLLIYWASTRESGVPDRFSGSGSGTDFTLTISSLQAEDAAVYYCQQPARLPLSFGGGTKVEIK", "group": "Ctrl", "Kd (apparent)": "nd", "seen in": "0 of 6"}
{"VL": "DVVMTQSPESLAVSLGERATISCKFAYQADMYGAQCNNVAWYQQKAGQPPKLLIYHADIREIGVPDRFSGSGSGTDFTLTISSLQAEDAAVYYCQQYFKLPLTFGGGTKVEIK", "group": "En_Gibbs", "Kd (apparent)": "12 nM", "seen in": "6 of 6"}
{"VL": "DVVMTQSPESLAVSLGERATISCKWQQSDDQESRNHNSVAWYQQKAGQPPKLLIYHASTRCSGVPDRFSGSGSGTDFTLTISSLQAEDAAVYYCQQYHRLPLSFGGGTKVEIK", "group": "GP_Gibbs", "Kd (apparent)": "4.5 nM", "seen in": "6 of 6"}
{"VL": "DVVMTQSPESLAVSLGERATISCKSSESVLYEFRNKNVVAWYQQKAGQPPKLLIYWASTRESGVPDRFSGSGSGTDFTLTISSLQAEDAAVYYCQQYHRLPLSFGGGTKVEIK", "group": "Ctrl", "Kd (apparent)": "nd", "seen in": "0 of 6"}
{"VL": "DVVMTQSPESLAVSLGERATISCQLSMWEQNGTRGYSSVAWYQQKAGQPPKLLIYDDDVRMAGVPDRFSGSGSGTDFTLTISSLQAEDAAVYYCQQYHRLPLSFGGGTKVEIK", "group": "En_Gibbs", "Kd (apparent)": "40 nM", "seen in": "6 of 6"}
{"VL": "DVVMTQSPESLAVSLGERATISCKQSTSVLQESRNKNSVAWYQQKAGQPPKLLIYDASTRESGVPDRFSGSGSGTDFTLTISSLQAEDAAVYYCQQYHRLPLSFGGGTKVEIK", "group": "GP_HC", "Kd (apparent)": "1.2 nM", "seen in": "6 of 6"}
{"VL": "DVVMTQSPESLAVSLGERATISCKSAASELLESRNKNSVAWYQQKAGQPPKLLIYSASTRESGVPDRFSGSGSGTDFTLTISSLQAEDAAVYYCQQYHRLPLSFGGGTKVEIK", "group": "GP_Gibbs", "Kd (apparent)": "960 pM", "seen in": "6 of 6"}
{"VL": "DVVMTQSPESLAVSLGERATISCKVEQSWLYESRNKNSVAWYQQKAGQPPKLLIYNASQRESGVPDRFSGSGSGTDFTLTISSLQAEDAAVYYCQQYHRLPLSFGGGTKVEIK", "group": "GP_Gen", "Kd (apparent)": "9.6 nM", "seen in": "6 of 6"}

The last 2 entries again:

{"VL": "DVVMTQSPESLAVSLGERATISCKSAASELLESRNKNSVAWYQQKAGQPPKLLIYSASTRESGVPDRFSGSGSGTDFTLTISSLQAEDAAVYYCQQYHRLPLSFGGGTKVEIK", "group": "GP_Gibbs", "Kd (apparent)": "960 pM", "seen in": "6 of 6"}
{"VL": "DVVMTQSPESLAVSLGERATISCKVEQSWLYESRNKNSVAWYQQKAGQPPKLLIYNASQRESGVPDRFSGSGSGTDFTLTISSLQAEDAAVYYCQQYHRLPLSFGGGTKVEIK", "group": "GP_Gen", "Kd (apparent)": "9.6 nM", "seen in": "6 of 6"}

The authors' rule: three or more of the six replicates give a measured affinity, fewer mean a poor binder.
Background: pairings of all light chain designs with three empty control strains gave a value in 4% of cases (median 430 nM, 5th percentile 38 nM). Values in that range, when seen in few replicates, are hard to tell from nonspecific mating.
The parent sequence was in this pool as ten entries: three were never detected, three once, and four in most replicates, with averages from 2.2 nM to 240 nM.
Values of this round are not directly comparable with the first-round values of the same sequences.

Data: MIT Lincoln Laboratory AlphaSeq set, Li et al. 2023, doi:10.1038/s41467-023-39022-2, as distributed in FLAb.